{
  "source": "patent US11446267B2",
  "about": "“Nanoparticle compositions, methods of fabrication, and use for drug delivery” (DIGNITY HEALTH, priority 2017, dated 2022)",
  "origin": "cited, not measured here",
  "system": "ALS patients",
  "conditions": "cited from earlier work",
  "data": [
    {"smiles": "Nc1nc2ccc(OC(F)(F)F)cc2s1", "note": "[Riluzole]", "values": [
      {"measurement": "extension of survival", "value": "2-3 months"}
    ]}
  ]
}
